Curated experimental data: melting point values

Melting points are in °C.
"–" marks a cell with nothing listed here.
The databases behind each value are named after "via".

structure (SMILES) | name | mp (°C) | via
O=C(O)c1cc2cc(Br)cc(Br)c2o1 | 5,7-Dibromo-benzofuran-2-carboxylic acid | 280 | OCHEM
CCc1nc2ccccc2c(C(=O)O)c1C | 2-Ethyl-3-methyl-quinoline-4-carboxylic acid | 191 | OCHEM
O=C1NC(=O)C2CC=CCC12 (centres undefined) | 1,2,3,6-Tetrahydrophthalimide | 136.3 | PubChem, eChemPortal
COc1ccc(Nc2ccccc2C(=O)O)cc1 | Anthranilic acid, N-(4-methoxyphenyl)- | 185 | OCHEM
CC(C)Cc1nnc(N)s1 | 5-Isobutyl-[1,3,4]thiadiazol-2-ylamine | 240 | OCHEM
O=C(C(=O)c1ccc(Cl)cc1)c1ccccc1 | (p-Chlorophenyl)phenylethanedione | 66.5 | OCHEM
O=C1CSCc2ccccc21 | Isothiochromanone | 57 | OCHEM
OCc1cc(F)cc(CO)c1O | 4-Fluoro-2,6-bis(hydroxymethyl)phenol | 120 | OCHEM
CN(C)c1ccc([N+](=O)[O-])cc1C(=O)O | 2-(dimethylamino)-5-nitrobenzoic acid | 150 | OCHEM
Cc1cccc(-c2n[nH]c(=S)o2)c1 | 5-(3-methylphenyl)-1,3,4-oxadiazole-2-thiol | 159 | OCHEM
Nc1ccc(Oc2ccc(F)cc2)nc1 | 6-(4-fluorophenoxy)pyridin-3-amine | 48 | OCHEM
NC(=O)c1cc(-c2ccccc2)sc1N | 2-amino-5-phenylthiophene-3-carboxamide | 205 | OCHEM
Oc1ccccc1CNC1CCCCC1 | 2-Cyclohexylaminomethyl-phenol | 62 | OCHEM
CCOc1cc(C#N)cc(Br)c1O | 3-bromo-5-ethoxy-4-hydroxybenzonitrile | 141 | OCHEM
COc1ccc(NC(=O)C(=O)O)cc1 | [(4-methoxyphenyl)amino](oxo)acetic acid | 207 | OCHEM
NCC(O)CN1CCOCC1 (centres undefined) | 1-Amino-3-(morpholin-4-yl)propan-2-ol | 38 | OCHEM
Cn1c(C2CC2)n[nH]c1=S | 5-cyclopropyl-4-methyl-4H-1,2,4-triazole-3-thiol | 181 | OCHEM
Oc1cccc(-c2nnco2)c1 | 3-(1,3,4-oxadiazol-2-yl)phenol | 212 | OCHEM
N.N.O=C(O)c1ccccc1C(=O)O | Benzene-1,2-dicarboxylic acid--ammonia (1/2) | 203.8 | eChemPortal
N=C(NO)c1ccsc1 | N-Hydroxythiophene-3-carboximidamide | 67 | OCHEM
O=S(=O)(Cl)c1ccc(S(=O)(=O)C(F)F)cc1 | 4-(Difluoromethanesulfonyl)benzene-1-sulfonyl chloride | 140 | OCHEM
O=C(O)CCNC(=O)c1cccs1 | 3-[(thien-2-ylcarbonyl)amino]propanoic acid | 221 | OCHEM
COC=C(C(=O)OC)c1ccccc1Oc1cc(Cl)ncn1 | – | 106.7 | eChemPortal
CS(=O)(=O)Nc1ccc(C(=O)CCl)cc1 | Methanesulfonamide, N-[4-(chloroacetyl)phenyl]- | 156 | OCHEM
Cc1nc(Cc2ccccc2)sc1C(=O)O | 2-benzyl-4-methyl-1,3-thiazole-5-carboxylic acid | 237 | OCHEM
CC(C)[C@@H]1NC(=O)O[C@@H]1CCC(F)(F)C(F)(F)C(F)(F)C(F)(F)C(F)(F)C(F)(F)F | – | 97.5 | ChemicalBook
CCCCNc1c(N)n(CCC)c(=O)[nH]c1=O | 6-Amino-5-(butylamino)-1-propylpyrimidine-2,4(1H,3H)-dione | 202 | OCHEM
COc1ccc(S(N)(=O)=O)cc1N | Benzenesulfonamide, 3-amino-4-methoxy- | 146 | OCHEM
CCOC(=O)c1[nH]c2c(c1C)C(=O)CCC2 | – | 160 | OCHEM
CCOc1ccc(Nc2nc3ccccc3s2)cc1 | Benzothiazol-2-yl-(4-ethoxy-phenyl)-amine | 170 | OCHEM
O=C(O)CNS(=O)(=O)c1cccc(C(F)(F)F)c1 | ({[3-(trifluoromethyl)phenyl]sulfonyl}amino)acetic acid | 81 | OCHEM
Nc1c(-c2ccccc2)nc2sccn12 | 6-phenylimidazo[2,1-b][1,3]thiazol-5-amine | 150 | OCHEM
CSCCC(NC(=O)COc1ccccc1)C(=O)O (centres undefined) | N-(Phenoxyacetyl)methionine | 126 | OCHEM
Cl/C(=C(/Cl)c1ccccc1)c1ccccc1 | 1,2-Dichloro-1,2-diphenylethene (trans) | 144 | OCHEM
O=C(O)CCCc1ccc(Br)s1 | 4-(5-Bromothiophen-2-yl)butanoic acid | 56 | OCHEM
Nc1nc(CCl)nc2sc3c(c12)CCCC3 | – | 175 | OCHEM
O=C(O)CN1C(=O)COc2ccccc21 | (3-oxo-2,3-dihydro-4H-1,4-benzoxazin-4-yl)acetic acid | 230 | OCHEM
Cc1cc(C(=O)O)c2ccc(F)cc2n1 | 7-Fluoro-2-methylquinoline-4-carboxylic acid | 268 | OCHEM
CCOC(=O)c1cc([N+](=O)[O-])cnc1C | Ethyl 2-methyl-5-nitronicotinate | 48.5 | OCHEM

Excerpt, the opening 5 entries:

{"smiles": "O=C(O)c1cc2cc(Br)cc(Br)c2o1", "name": "5,7-Dibromo-benzofuran-2-carboxylic acid", "mp (°C)": "280", "via": "OCHEM"}
{"smiles": "CCc1nc2ccccc2c(C(=O)O)c1C", "name": "2-Ethyl-3-methyl-quinoline-4-carboxylic acid", "mp (°C)": "191", "via": "OCHEM"}
{"smiles": "O=C1NC(=O)C2CC=CCC12", "stereo": "centres undefined", "name": "1,2,3,6-Tetrahydrophthalimide", "mp (°C)": "136.3", "via": "PubChem, eChemPortal"}
{"smiles": "COc1ccc(Nc2ccccc2C(=O)O)cc1", "name": "Anthranilic acid, N-(4-methoxyphenyl)-", "mp (°C)": "185", "via": "OCHEM"}
{"smiles": "CC(C)Cc1nnc(N)s1", "name": "5-Isobutyl-[1,3,4]thiadiazol-2-ylamine", "mp (°C)": "240", "via": "OCHEM"}

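The numbers are reported measurements, compiled and curated for the OPERA QSAR suite. One number stands for a compound and property, with no spread given. Conditions of the individual experiments are not part of the data. A value may pool stereoisomers or salt forms, and the file does not say which form was measured. Some entries may be limits or estimates that an upstream database listed as plain numbers.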

Data: OPERA 2.9 data sets, kmansouri/OPERA on GitHub.